Results: patent publication US11850287B2, “Heterocyclic acyl hydrazone linkers, methods and uses thereof” (Ontario Institute for Cancer Research (OICR), priority 2017, dated 2023)

System: SKOV3 ovarian cells
Experiment: Cytotoxicity against SKOV3 ovarian cancer cells (ATP content, CellTiter-Glo)
Type: cell-based
Settings: DAR ratio 3.39 (Synagis-SMCC-DM1), 3.50 (Trastuzumab-SMCC-DM1), 6.59 (IIIa), 6.99 (IIIc)
Experimental: SKOV3 ovarian cells are incubated with the effectors for a period corresponding to 2 to 3 times their estimated doubling time and the amount of viable cells is determine by measuring ATP content in the wells. ATP has been widely accepted as a valid marker of viable cells. When cells lose membrane integrity, they lose the ability to synthesize ATP and endogenous ATPases rapidly deplete any remaining ATP from the cytoplasm. All ADCs are diluted in DPBS to 6× the highest concentration tested, followed by 10 3-fold serial dilutions in DPBS for a total of 11 concentration points. Each point is added to triplicate wells. DPBS is added in wells to measure the maximum growth. Cells are diluted at their appropriate seeding density (ranging from 150 to 1000 cells per well) in complete media supplemented with glutamine 2 mM, serum and antibiotic cocktail. […] Total ATP is measured using CellTiter-Glo reagent from Promega as recommended by the supplier. […] Signal output is measured on a luminescence plate reader (envision, Perkin Elmer) set at an integration time of 0.1 sec. […]
Each concentration point (S) is normalized to the negative control wells (NC) and expressed as % survival (NC-S/NC×100). Potency (IC50) and efficacy are calculated from a non-linear curve fit of the points versus log of the concentrations without constrain on the slope. Refined data are analysed using Prism software. […]

Trastuzumab-SMCC-DM1
IC50: 0.038 nM
